# Ab-14 light chain CDR variants: yeast mating affinities

Binding partner: SARS-CoV-2 spike HR2 peptide, sequence PDVDLGDISGINAS.

Each scFv is VH, the linker GGGGSGGGGSGGGGS, VL, as in the parent Ab-14, and differs from it in the CDRs of the light chain only.
VH: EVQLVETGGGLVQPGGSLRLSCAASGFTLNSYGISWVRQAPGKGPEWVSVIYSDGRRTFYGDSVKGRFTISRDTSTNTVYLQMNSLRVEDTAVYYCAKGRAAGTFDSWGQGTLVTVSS
VL: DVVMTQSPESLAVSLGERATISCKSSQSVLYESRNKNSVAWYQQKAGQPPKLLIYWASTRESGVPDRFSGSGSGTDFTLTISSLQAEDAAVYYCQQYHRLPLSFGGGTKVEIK

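Designed CDR sequences, proposed from the first random library and measured here. Their group label is 14L_En_Gen (En: ensemble of fine-tuned language models; Gen: genetic algorithm). The scFvs were displayed on barcoded MATa yeast, the peptide on MATalpha yeast. Mating (16 h, 30 °C) was followed by selection of diploids and sequencing of their barcodes. A regression on co-assayed BCL2-family reference pairs converts the normalised counts of each replicate to an apparent Kd. Mating was done six times.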

The parent's light chain CDRs are KSSQSVLYESRNKNSVA, WASTRES, QQYHRLPLS; each variant's own CDRs replace them letter for letter.
Scale: log10 of Kd in nM, estimated from mating counts; low values are strong binders.
The mean shown is taken over the replicates in which the pair was detected.
An entry "nd" has no value in the source: the pair was not observed among the diploids in that replicate. This suggests poor binding but is not conclusive.

CDR-L1 | CDR-L2 | CDR-L3 | replicates, log10 nM | mean log10 Kd (nM) | empty controls
IVSQLMLWGMHAKNSIA | EAETRPN | QQYDRLPLM | nd nd nd nd nd nd | nd | 0 of 18
MLSEFMHMLGAKKNSIA | DLVVRAN | QQYHRLPLE | nd 1.83 1.19 0.84 0.94 1.76 | 1.31 | 1 of 18 (1.74)
HMSALTLGGMRMRNSVA | QMTTREN | QQYDRLPLT | 0.85 0.78 0.73 0.58 1.35 0.86 | 0.86 | 0 of 18
TISMVMNTLTRHGNNVA | DLAERED | QQYFRLPLS | 1.65 1.48 1.40 1.60 1.80 1.29 | 1.54 | 2 of 18 (2.17)
HMSMLTLMGQRHRNSVA | QMTTREN | QQYDRLPLS | 1.43 1.56 1.12 1.25 2.21 1.43 | 1.50 | 1 of 18 (2.35)
HMSMLTRGGMRQRNSVA | QMTTREN | QQYDRLPLS | nd 0.85 1.70 2.50 2.13 2.54 | 1.94 | 0 of 18
KLVQFMNRGTHHTSNIA | DAQNRID | QQYARLPLQ | nd 0.48 nd 0.19 -0.32 0.91 | 0.32 | 0 of 18
SIGMTLNQMYEKKNNVA | DLVEREN | QQYHRLPLS | nd 0.68 nd 2.40 0.56 nd | 1.21 | 0 of 18
KVSEFMRGLMGRKDSIA | DNNTRGA | QQYDRLPLS | nd 3.26 2.08 2.10 2.58 nd | 2.50 | 1 of 18 (2.40)
TISQMTSLFSQSINNVA | EVSMREE | QQYDRLPLI | 1.94 1.84 2.21 1.80 2.06 2.27 | 2.02 | 1 of 18 (4.03)
TISQITSSFSQNINNVA | EVSTRLN | QQYDRLPLS | 0.57 0.52 0.44 0.41 0.55 0.74 | 0.54 | 0 of 18
SLGLVTMLEEYARNNVA | NNSTRED | QQYDRLPLS | nd 2.56 nd 2.40 1.85 nd | 2.27 | 0 of 18
KLTSITGTEKVRGNNVA | EMETREN | QQYNRLPLS | 0.00 -0.03 0.10 -0.88 -0.30 0.42 | -0.11 | 0 of 18
MISQIYNVGQFAINSVA | QASLRCN | QQYDRLPLE | nd 2.84 2.31 nd nd nd | 2.58 | 0 of 18
KISQMVRVGSTLSNSIA | EEVTRAK | QQYHRLPLS | 0.46 0.49 0.73 0.39 0.44 0.67 | 0.53 | 0 of 18
KIGMTLNQLMHQKNNVA | DLVTREN | QQYGRLPLS | 0.60 1.19 1.36 0.97 0.94 0.82 | 0.98 | 2 of 18 (3.12)
SIGGHMKSSMAHRNSVA | DMTNRED | QQYDRLPLS | 0.44 0.22 0.05 -0.03 0.03 0.36 | 0.18 | 1 of 18 (2.17)
KISQMVRVGSTKNNSIA | EEATRAD | QQYHRLPLS | 1.57 1.76 0.87 0.97 1.38 1.22 | 1.29 | 0 of 18
IVSQLMLWGYHAKNSIA | EAETRPN | QQYDRLPLE | nd nd nd nd nd nd | nd | 0 of 18
MISQLMNMGQFAINSVA | QASERSE | QQYDRLPLI | 2.40 1.39 1.69 1.67 2.22 3.31 | 2.11 | 1 of 18 (1.88)
MMSQVSGQGTRHRNNVA | QTETREP | QQYDRLPLI | 0.89 0.88 0.49 0.83 0.62 0.55 | 0.71 | 0 of 18
KISQMVRVGSTVNNSIA | EEQTRAK | QQYHRLPLS | 1.42 1.41 0.89 1.54 1.28 1.47 | 1.33 | 0 of 18
NISHFLQNTMKNSNNVA | EMTMREV | QQYHHLPLS | 1.40 1.16 0.86 0.59 0.96 0.80 | 0.96 | 0 of 18
MVSQLMVWGMHAKNSIA | EAQMRLN | QQYDRLPLF | 1.14 1.23 0.99 1.12 0.45 0.70 | 0.94 | 2 of 18 (2.32)
KVSEFMRGLMMRKDNIA | DNNTRSN | QQYDRLPLS | 1.85 1.43 nd 1.33 nd 1.80 | 1.61 | 0 of 18
KVSEFMRGLLMRKDSIA | DNNTRSN | QQYDRLPLS | 2.62 3.00 2.68 nd 2.50 2.01 | 2.56 | 3 of 18 (2.32)
TISQMTALFSQTINNVA | EVSTREN | QQYDRLPLM | 0.57 0.46 0.10 0.14 0.35 0.46 | 0.35 | 1 of 18 (1.59)
KVSEFMKGLMMRKDSIA | DNTTRGQ | QQYDRLPLS | 2.88 2.60 2.47 1.99 2.02 1.96 | 2.32 | 1 of 18 (4.39)
MISQLYNMGTFAINSVA | QASIRNE | QQYDRLPLE | nd 2.37 1.70 1.52 1.38 3.11 | 2.02 | 0 of 18
MVTQMAMLGMTNKRSVA | NAEMREN | QQYHRLPLI | 1.09 0.63 1.37 1.33 1.25 0.97 | 1.11 | 3 of 18 (2.55)
KISQMARVGSTHGNSIA | EEATRCD | QQYHRLPLA | 0.63 0.04 0.30 0.34 0.01 0.24 | 0.26 | 0 of 18
MVNGIMDHLSKNTNNVA | ETTTREE | QQYERLPLS | nd 0.51 0.51 2.59 0.77 0.98 | 1.07 | 0 of 18
KLGMTLNQLMHKKNNVA | DLVERET | QQYFRLPLS | 0.55 0.12 0.47 0.42 0.32 0.66 | 0.42 | 1 of 18 (2.10)
TISGVMQQMSHSKNNVA | EVSERLD | QQYFRLPLE | 0.18 0.16 0.13 0.02 0.07 0.12 | 0.11 | 0 of 18
TIGQTLMSGVRNRSNVA | EVSERLN | QQYDRLPLF | 1.16 0.89 1.04 0.90 0.66 1.39 | 1.01 | 2 of 18 (2.59)
MMSQVWGLGQRHRNNVA | QTSMRET | QQYDRLPLI | 1.55 1.55 0.87 1.23 1.38 0.93 | 1.25 | 0 of 18
MISQLYNMGQFAINSVA | QASERNV | QQYDRLPLT | 1.68 1.46 2.29 2.01 2.21 1.74 | 1.90 | 3 of 18 (2.91)
TISGIMNSQSHVKNNVA | EMSTREK | QQYVRLPLA | 0.49 0.28 0.39 0.44 0.39 0.08 | 0.35 | 0 of 18
TISQMSQLFSQTLNNVA | EVSTRLN | QQYDRLPLA | 1.22 1.38 1.03 1.15 1.22 0.89 | 1.15 | 0 of 18
KLRSVTGTEKVKGNNVA | EMETREN | QQYDRLPLS | 0.60 0.59 0.36 0.15 0.35 0.49 | 0.42 | 1 of 18 (3.53)
QIYQAMHTLSQKKNNVA | DVNERGS | QQYYRLPLS | 0.42 -0.05 0.22 -0.07 0.08 -0.09 | 0.09 | 2 of 18 (2.00)

Excerpt, the final 2 entries:

| CDR-L1 | CDR-L2 | CDR-L3 | replicates, log10 nM | mean log10 Kd (nM) | empty controls |
|---|---|---|---|---|---|
| KLRSVTGTEKVKGNNVA | EMETREN | QQYDRLPLS | 0.60 0.59 0.36 0.15 0.35 0.49 | 0.42 | 1 of 18 (3.53) |
| QIYQAMHTLSQKKNNVA | DVNERGS | QQYYRLPLS | 0.42 -0.05 0.22 -0.07 0.08 -0.09 | 0.09 | 2 of 18 (2.00) |

The authors averaged sequences with at least three values out of six and counted those with two or fewer as poor binders.
A sequence measured in both rounds can read differently, since the two assays cover different ranges.
Nonspecific signal, from three strains lacking the peptide, appeared in 4% of pairings of all light chain designs, centred on 2.64 (5% of these signals below 1.59); values are not corrected for it. The control count says in how many pairings with the empty strains this scFv gave a signal, with their mean in brackets.
Of ten entries with the parent sequence, four were seen in most replicates (averages 0.34 to 2.37), three in one and three in none, so single entries are noisy.

Source: Li et al. 2023 (doi:10.1038/s41467-023-39022-2), MIT Lincoln Laboratory and A-Alpha Bio; data file from the FLAb repository.